Experiments:
NCI-N87 cells = experiment: Cell killing assay (MTS), NCI-N87 cells; type: cell-based, human; details: 96 hours
Description: The cells were recovered by centrifugation (2 min, 2000 rpm), the supernatant was discarded, and the cells were resuspended in complete McCoy's 5A (5 ml). The cells were then counted using a haemocytometer and diluted accordingly. They were plated at 5000 cells/well (200 μl) using attachment factor and incubated overnight at 37° C., 5% CO2 in a humidified atmosphere. U87 is a non-HER2 expressing glioblastoma cell line [Zitron I M et al (2013) BMC Cancer 13:83] and was grown in a similar way, plated at 1000 cells/well (using DMEM media). BT474 is a HER2 expressing breast cancer cell line [Brockhoff G et al (2007) Cell Prolif 40:488-507] and was grown in a similar way, plated at 7500 cells/well (using RPMI media). NCI-N87 is a HER2 expressing gastric cancer cell line [Yamashita-Kashima Y et al (2013) Oncol. Rep 30:1087-93] and was grown in a similar way, plated at 7500 cells/well (using RPMI media).
The cells were exposed to the various ADCs diluted in complete media for 96 hours at 37° C., 5% CO2 in a humidified atmosphere. Cell viability was measured using the Promega Aqueous Cell-titre-96™ aqueous one solution cell proliferation kit (MTS reagent) according to manufacturer's instructions. Briefly, the media was removed and 100 μl of complete phenol red free media, pre-combined with MTS reagent, was added to the cells (20 μl of reagent per 100 μl of media). The plates were read on an ELISA plate reader at 490 nm after a 2 hr incubation in the dark (5% CO2, 37° C.).
The data (absorption units) were converted to % cell survival by using the untreated controls as the 100% cell survival and the Triton X-100 controls as the 100% cell death. The average absorption value for the latter was subtracted from all the rest of the data in order to get a suitable baseline. The averages were converted to survival and standard error values were obtained for each n value (as a % cell survival). […] Experiments were repeated at least 3 times for each compound tested and a set or an average of the data was plotted and fitted to obtain a dose-response curve.

[1] = Plasma pharmacokinetics in BALB/c mice (ELISA, total antibody and total ADC); type: in vivo, mouse; details: 1 × 5 mg/kg, mean AUC in anti-payload and anti-protein detection
Description: Mice. Female BALB/c mice (BALB/cAnNCrl, Charles River) were eight weeks old with body weights ranging from 15.9 to 21.9 grams at the beginning of the study. The animals were fed ad libitum water (reverse osmosis, 1 ppm Cl) and NIH 31 Modified and Irradiated Lab Diet® consisting of 18.0% crude protein, 5.0% crude fat, and 5.0% crude fiber. The mice were housed on irradiated Enrich-o'cobs™ Laboratory Animal Bedding in static microisolators on a 12-hour light cycle at 20-22° C. (68-72° F.) and at 40-60% humidity. Charles River Discovery Services North Carolina (CR Discovery Services, who carried out this contracted R&D) specifically complies with the recommendations of the Guide for Care and Use of Laboratory Animals with respect to restraint, husbandry, surgical procedures, feed and fluid regulation, and veterinary care. The Animal Care and Use program at CR Discovery Services is accredited by the Association for Assessment and Accreditation of Laboratory Animal Care International, which assures compliance with accepted standards for the care and use of laboratory animals.
Therapeutic (test) Agents. All test agents were supplied as ready-to-dose dosing solutions. All dosing solutions were stored at 4° C. until dosed. All treatments were administered in a dosing volume scaled to the body weights of the individual animals to obtain the dosing concentration described in the treatment tables.
Treatment (mice). On Day 1 of the study, mice were divided into groups each consisting of eighteen mice (per test agent being evaluated), and dosing was initiated according to the treatment plan summarized in the treatment tables. All doses were administered intravenously (i.v.) by tail vein injection as described in the tables below.
Endpoint. […]
Quantification of test agents in plasma. […]
(Concortis) and anti-cemadotin (in-house mouse monoclonal antibody, Example 33 that also recognised P5C5 and AuristatinF), total ADC. The reference test agents were used to construct a calibration curve for which the plasma samples were compared to, in order to quantify the amount present. […]

U87 cells = experiment: Cell killing assay (MTS), U87 cells; type: cell-based; details: U87 Cells (HER2−), 96 hours, Table 46
Description: SKBr3, human breast cancer cell line, high HER2 expression levels, up to 1,000,000 receptors per cell [Lazar G A, et al Proc Natl Acad Sci USA. […] When confluency was 70-80%, cells were washed with PBS (2×10 ml) and incubated with trypsin for 5-7 min. Complete media was added and the cells were resuspended by pipetting. The cells were recovered by centrifugation (2 min, 2000 rpm), the supernatant was discarded, and the cells were resuspended in complete DMEM (5 ml). The cells were then counted using a haemocytometer and diluted accordingly. They were plated at 4500 cells/well (200 μl) using attachment factor and incubated overnight at 37° C., 5% CO2 in a humidified atmosphere. […]
The cells were exposed to the various ADCs diluted in complete media for 96 hours at 37° C., 5% CO2 in a humidified atmosphere. Cell viability was measured using the Promega Aqueous Cell-titre-96™ aqueous one solution cell proliferation kit according to manufacturer's instructions. […] The plates were read on an ELISA plate reader at 490 nm after a 2 hr incubation in the dark (5% CO2, 37° C.). […]
The cells were recovered by centrifugation (2 min, 2000 rpm), the supernatant was discarded, and the cells were resuspended in complete McCoy's 5A (5 ml). The cells were then counted using a haemocytometer and diluted accordingly. […]

[2] = system: BT474 human breast carcinoma xenografts; experiment: Tumour growth inhibition or eradication in BT474 xenograft model; type: in vivo; details: 5 mg/kg dosing regimen
Description: (§1) Mice. […] The animals were fed ad libitum water (reverse osmosis, 1 ppm Cl), and NIH 31 Modified and Irradiated Lab Diet® consisting of 18.0% crude protein, 5.0% crude fat, and 5.0% crude fiber. The mice were housed on irradiated Enrich-o'cobs™ Laboratory Animal Bedding in static microisolators on a 12-hour light cycle at 20-22° C. (68-72° F.) and 40-60% humidity. Charles River Discovery Services North Carolina (CR Discovery Services, who carried out this contracted R&D) specifically complies with the recommendations of the Guide for Care and Use of Laboratory Animals with respect to restraint, husbandry, surgical procedures, feed and fluid regulation, and veterinary care.
Tumor weight may be estimated with the assumption that 1 mg is equivalent to 1 mm^3 of tumor volume.

[3] = system: BT474 human breast carcinoma xenografts; experiment: Tumour penetration in BT474 xenografts, immunohistochemistry 2 hrs post dose; type: in vivo, mouse; details: 5 mg/kg single i.v. dose, SCID mice, BT474, payload detection (total ADC)
Description: as §1, with “care. […]” for “care.”
In Vivo Implantation and Tumor Growth. […] On the day of tumor implant, each test mouse received a 1 mm^3 BT474 fragment implanted subcutaneously in the right flank, and tumor growth was monitored as the average size approached the target range of 400 to 600 mm^3. […] Tumors were measured in two dimensions using calipers, and volume was calculated using the formula: Tumor Volume (mm^3)=w^2×I/2
Therapeutic (test) Agents. All test agents were prepared as ready-to-dose dosing solutions at concentrations of 0.625 mg/mL. […]

[4] = NCI-N87 Cells (HER2++), Table 51

In the case of Trastuzumab-Auristatin F-C5, DAR 4.8, the “IC50 μg/ml” value (NCI-N87 cells; NCI-N874 Cells (HER2++), Table 49) is reported as 0.0018 µg/mL.

For “Trastuzumab-MMAE-PAB-Cit-Val-dPEG9, DAR 4”, the “IC50 μg/ml” value (NCI-N87 cells; [4]) was 0.067 µg/mL and the IC50 (NCI-N87 cells; [4]) was 0.45 nM.

For Trastuzumab-MMAF-C5, the “Bioavailability (blood exposure, AUC, 24 hrs)” value (shortened to “Bioavailability”) ([1]; Table 55) was 1890 μghr/ml and the “Bioavailability” value ([1]; Table 57) was 1890 μghr/ml.

With Trastuzumab-MMAF-C5, DAR 4 the “IC50” value (U87 cells) was over 5 µg/mL.

For Trastuzumab-P5C5, the tumour growth delay [2] was “marginal, insignificant growth delay”, the “localisation in tumour sections at 2 hrs post-dosing” value [3] was “Very little” and the “Bioavailability” value ([1]; Table 59) was over 150 μghr/ml.

— patent US11202837B2, “Biological materials and uses thereof” (Antikor Biopharma Limited, priority 2014, dated 2021)
